Reference: patent publication US10273246B2, “Methods and compositions of substituted 5H-[1,2,5] oxadiazolo [3′,4′:5,6] pyrazino[2,3-B] indole analogs as inhibitors of β-catenin/T-cell factor protein-protein interactions” (University of Utah Research Foundation, priority 2015, dated 2019)

Protein sequences, listed by entry. Tags and fused reporters are not part of them. Residues count along the entry.
UniProt P35222, 138-686: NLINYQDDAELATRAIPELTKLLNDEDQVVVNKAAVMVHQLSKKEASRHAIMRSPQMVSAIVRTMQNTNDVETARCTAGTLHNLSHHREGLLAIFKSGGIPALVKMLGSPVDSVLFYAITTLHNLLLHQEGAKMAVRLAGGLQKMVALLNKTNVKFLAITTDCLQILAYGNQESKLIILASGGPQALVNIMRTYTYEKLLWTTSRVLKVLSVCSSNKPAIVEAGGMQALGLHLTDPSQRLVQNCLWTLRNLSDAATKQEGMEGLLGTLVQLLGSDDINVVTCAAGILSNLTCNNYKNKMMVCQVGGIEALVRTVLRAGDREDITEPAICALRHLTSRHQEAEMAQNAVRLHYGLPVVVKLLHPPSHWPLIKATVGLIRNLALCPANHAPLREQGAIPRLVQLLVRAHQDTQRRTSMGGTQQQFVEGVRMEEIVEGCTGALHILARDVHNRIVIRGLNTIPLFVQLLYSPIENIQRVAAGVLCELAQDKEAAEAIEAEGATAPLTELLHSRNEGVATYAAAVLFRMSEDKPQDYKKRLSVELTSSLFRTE
UniProt P35222, 138-686 V511S/I569S: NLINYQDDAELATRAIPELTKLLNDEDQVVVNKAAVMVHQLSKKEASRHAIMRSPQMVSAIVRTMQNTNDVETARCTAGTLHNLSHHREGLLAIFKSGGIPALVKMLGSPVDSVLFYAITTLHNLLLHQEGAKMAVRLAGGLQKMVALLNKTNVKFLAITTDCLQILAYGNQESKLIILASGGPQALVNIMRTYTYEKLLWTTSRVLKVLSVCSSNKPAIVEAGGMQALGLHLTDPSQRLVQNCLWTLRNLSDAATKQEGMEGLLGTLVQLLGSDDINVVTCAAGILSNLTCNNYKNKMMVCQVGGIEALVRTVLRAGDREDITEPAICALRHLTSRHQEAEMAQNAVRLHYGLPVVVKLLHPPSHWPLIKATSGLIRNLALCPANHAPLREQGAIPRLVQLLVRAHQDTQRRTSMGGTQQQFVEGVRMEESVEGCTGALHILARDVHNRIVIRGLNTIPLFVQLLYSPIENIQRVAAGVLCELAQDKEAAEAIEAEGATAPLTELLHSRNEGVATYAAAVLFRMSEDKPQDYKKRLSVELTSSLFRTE

Legend:
[1] = biological target: β-catenin/E-cadherin (Homo sapiens, UniProt P35222); assay: FP selectivity assay, β-catenin/E-cadherin
[2] = biological target: T1, β-catenin V511S/I569S double mutant/Tcf4 (Homo sapiens, UniProt P35222, I569S/V511S); assay: FP competitive inhibition assay, V511S/I569S mutant; type: binding; conditions: site-directed mutagenesis study, wild-type Tcf4, read-out: Ki ± SD V511S/I569S β-catenin
T1 construct: Wild-type β-catenin and its mutants (residues 138-686) were cloned; 6xHis; made in house; host or cells: E. coli BL21 DE3

[3] = biological target: β-catenin/APC-R3 (Homo sapiens, UniProt P35222); assay: FP selectivity assay, β-catenin/APC-R3
[4] = biological target: β-catenin/Tcf4 (Homo sapiens, UniProt P35222); assay: biochemical
[5] = biological target: β-catenin/Tcf4 PPI (Homo sapiens, UniProt P35222); conditions: read-out: Ki ± SD AlphaScreen; Table 8, resynthesized 18 and derivatives
[6] = test system: HCT116 cells; assay: MTs cell viability assay, HCT116; type: cell-based, human; conditions: result in words
[7] = test system: SW480 cells; assay: MTs cell viability assay, SW480; type: cell-based, human; conditions: result in words

Ki [1] [µM] | Ki [3] [µM] | Ki [4] [µM] | Ki [5] [µM] | Compound | Ki [2] [µM] | growth of HCT116 cells [6] | growth of SW480 cells [7]
170 ± 26 | 340 ± 25 | 15 ± 5.3 | 1 ± 0.13 | O=C(O)CCCn1c2ccccc2c2nc3nonc3nc21 [Compound 33, 4-(5H-[1,2,5]Oxadiazolo[3′,4′:5,6]Pyrazino[2,3-B]Indol-5-yl)Butanoic Acid] | 59 ± 4.2 | – | –
– | – | – | – | N#CCCn1c2ccccc2c2nc3nonc3nc21 [Compound 35, 3-(5H-[1,2,5]Oxadiazolo[3′,4′:5,6]Pyrazino[2,3-B]Indol-5-yl)Propanenitrile] | – | not | inhibited
